Results on 14 compounds are retold here after patent US10787490B2, “Peptide inhibitors of interleukin-23 receptor and their use to treat inflammatory diseases” (Protagonist Therapeutics, Inc., priority 2015, dated 2020).

Chains of the proteins cited; added tags and fusions are not shown. Residues count along the entry.
UniProt Q5VWK5, 24-354 limits assumed, looked up: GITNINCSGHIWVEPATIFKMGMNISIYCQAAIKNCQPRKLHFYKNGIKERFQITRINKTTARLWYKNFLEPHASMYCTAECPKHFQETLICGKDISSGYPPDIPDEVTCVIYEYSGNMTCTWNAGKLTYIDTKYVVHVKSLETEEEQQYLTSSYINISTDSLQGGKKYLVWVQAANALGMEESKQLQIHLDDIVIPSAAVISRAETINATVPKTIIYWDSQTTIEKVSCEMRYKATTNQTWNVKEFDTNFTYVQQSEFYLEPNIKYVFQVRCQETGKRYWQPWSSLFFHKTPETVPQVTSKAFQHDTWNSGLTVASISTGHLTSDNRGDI

One test has as its target human IL-23R (IL23R_huFC) (Homo sapiens, UniProt Q5VWK5). The conditions noted are these: read-out: ELISA IL23R/IL23 in nMoles (IC50); non-cyclic peptides. A general note: In an ELISA, binding on a coated surface is turned into a signal by an enzyme label.
As to `CSCC[C@H](NC(=O)[C@H](C)N)C(=O)N[C@H](C(=O)N[C@@H](Cc1c[nH]c2ccccc12)C(=O)N[C@@H](CCC(N)=O)C(=O)N[C@@H](C)C(=O)N[C@@H](Cc1ccc(O)cc1)C(=O)N[C@@H](Cc1c[nH]c2ccccc12)C(=O)N[C@@H](CC(C)C)C(=O)N[C@@H](Cc1ccc(O)cc1)C(=O)NCC(=O)N[C@@H](CCCNC(=N)N)C(=O)O)[C@@H](C)O` [compound 15], the IC50 is 9.59 µM.

As for `CSCC[C@H](NC(=O)[C@H](C)NC(C)=O)C(=O)N[C@H](C(=O)N[C@@H](Cc1c[nH]c2ccccc12)C(=O)N[C@@H](CCC(N)=O)C(=O)N[C@@H](CC(=O)O)C(=O)N[C@@H](Cc1ccc(O)cc1)C(=O)N[C@@H](Cc1c[nH]c2ccccc12)C(=O)N[C@@H](CC(C)C)C(=O)N[C@@H](Cc1ccc(O)cc1)C(=O)NCC(=O)N[C@@H](CCCNC(=N)N)C(N)=O)[C@@H](C)O` [compound 9], the IC50 is 6.1 µM.

On to `CSCC[C@H](NC(=O)[C@H](C)N)C(=O)N[C@@H](C)C(=O)N[C@@H](Cc1c[nH]c2ccccc12)C(=O)N[C@@H](CCC(N)=O)C(=O)N[C@@H](CC(=O)O)C(=O)N[C@@H](Cc1ccc(O)cc1)C(=O)N[C@@H](Cc1c[nH]c2ccccc12)C(=O)N[C@@H](CC(C)C)C(=O)N[C@@H](Cc1ccc(O)cc1)C(=O)NCC(=O)N[C@@H](CCCNC(=N)N)C(=O)O` [compound 12], for which the IC50 came to 24.2 µM.

For the compound `CSCC[C@H](NC(=O)[C@H](C)NC(C)=O)C(=O)N[C@H](C(=O)N[C@@H](Cc1c[nH]c2ccccc12)C(=O)N[C@@H](CCC(N)=O)C(=O)N[C@@H](CC(=O)O)C(=O)N[C@@H](Cc1ccc(O)cc1)C(=O)N[C@@H](Cc1c[nH]c2ccccc12)C(=O)N[C@@H](CC(C)C)C(=O)N[C@@H](Cc1ccc(O)cc1)C(=O)NCC(=O)N[C@@H](CCCNC(=N)N)C(=O)N[C@@H](CCCCN)C(N)=O)[C@@H](C)O` [compound 4], the IC50 was 4.1 µM.

The test is the same for the next values; noted with them: read-out: Human ELISA IL23/IL23R.
Take `CC(=O)N[C@H]1CSSC[C@@H](C(=O)N[C@@H](Cc2ccc(O)cc2)C(=O)N[C@@H](Cc2c[nH]c3ccccc23)C(=O)N[C@@H](CCCNC(N)=O)C(=O)N[C@H](C(=O)N[C@@H](Cc2ccccc2)C(=O)NCC(=O)NCCC(=O)N[C@H](CCCCN)C(N)=O)C2CCCCC2)NC(=O)[C@H](C(C)C)NC(=O)[C@H](Cc2c[nH]c3ccccc23)NC(=O)[C@H](CC(=O)O)NC(=O)[C@H](C)NC1=O` [compound 39]: the IC50 is > 30 µM.

With `CC(=O)N[C@H]1CSSC[C@@H](C(=O)N[C@@H](Cc2ccc(O)cc2)C(=O)N[C@@](C)(Cc2c[nH]c3ccccc23)C(=O)N[C@@H](CCCNC(N)=O)C(=O)N[C@@H](CCC(C)C)C(=O)N[C@@H](CC(N)=O)C(=O)NCC(=O)NCCOCC(=O)N[C@H](CCCCN)C(N)=O)NC(=O)[C@H](CCC(N)=O)NC(=O)[C@H](Cc2c[nH]c3ccccc23)NC(=O)[C@H]([C@@H](C)O)NC(=O)[C@H](CCC(N)=O)NC1=O` [compound 56], the IC50 is ~6 µM.

Consider `CC(=O)N[C@H]1CSSC[C@@H](C(=O)N[C@@H](Cc2ccc(O)cc2)C(=O)N[C@@](C)(Cc2ccc(F)cc2)C(=O)N[C@@H](CCCN)C(=O)N[C@@H](CN)C(=O)N[C@@H](Cc2ccccc2)C(=O)NCC(=O)NCCOCC(=O)N[C@H](CCCCN)C(N)=O)NC(=O)[C@H](C(C)C)NC(=O)[C@H](Cc2c[nH]c3ccccc23)NC(=O)[C@H](CC(=O)O)NC(=O)[C@H](C)NC1=O` [compound 84], for which the IC50 is > 30 µM.

For `CC(=O)N[C@H]1CSSC[C@@H](C(=O)N[C@@H](Cc2ccc(O)cc2)C(=O)N[C@@H](Cc2c[nH]c3ccccc23)C(=O)N[C@@H](CCCNC(=N)N)C(=O)N[C@H](CC(=O)N[C@@H](CC(N)=O)C(=O)NCC(=O)NCCOCC(=O)N[C@H](CCCCN)C(N)=O)CC(C)C)NC(=O)[C@H](CCC(N)=O)NC(=O)[C@H](Cc2c[nH]c3ccccc23)NC(=O)[C@H]([C@@H](C)O)NC(=O)[C@H](CCC(N)=O)NC1=O` [compound 326], the IC50 was 0.224 µM.

Still in this test, the particulars now being: read-out: Human IL23/IL23R ELISA IC50; Table E3H.
As for `CC(=O)N[C@H]1CSSC[C@@H](C(=O)N[C@@H](Cc2ccc(O)cc2)C(=O)N[C@@H](Cc2c[nH]c3ccccc23)C(=O)N[C@@H](CCC(C)C)C(=O)N[C@@H](CCC(=O)O)C(=O)N[C@@H](CC(N)=O)C(=O)NCC(=O)N[C@@H](CC(C)C)C(N)=O)NC(=O)[C@H](CCC(N)=O)NC(=O)[C@H](Cc2c[nH]c3ccccc23)NC(=O)[C@H]([C@@H](C)O)NC(=O)[C@H](CCC(N)=O)NC1=O` [compound 472], the IC50 was 0.174 µM.

With `CC(=O)N[C@H]1CSSC[C@@H](C(=O)N[C@@H](Cc2ccc(O)cc2)C(=O)N[C@@H](Cc2c[nH]c3ccccc23)C(=O)N[C@@H](CCC(C)C)C(=O)N2CCC[C@H]2C(=O)N[C@@H](CC(N)=O)C(=O)NCC(N)=O)NC(=O)[C@H](CCC(N)=O)NC(=O)[C@H](Cc2c[nH]c3ccccc23)NC(=O)[C@H]([C@@H](C)O)NC(=O)[C@H](CCC(N)=O)NC1=O` [compound 404], the IC50 worked out at 4.83 µM.

Consider `CC(=O)N[C@H]1CSSC[C@@H](C(=O)N[C@@H](Cc2ccc(O)cc2)C(=O)N[C@@H](Cc2c[nH]c3ccccc23)C(=O)N2CCC[C@@H]2C(=O)N[C@@H](CCC(=O)O)C(=O)N[C@@H](CC(N)=O)C(=O)NCC(N)=O)NC(=O)[C@H](CCC(N)=O)NC(=O)[C@H](Cc2c[nH]c3ccccc23)NC(=O)[C@H]([C@@H](C)O)NC(=O)[C@H](CCC(N)=O)NC1=O` [compound 512], for which the IC50 was > 30 µM.

On to `CC(=O)N[C@H]1CSSC[C@@H](C(=O)N[C@@H](Cc2ccc(O)cc2)C(=O)N[C@@H](Cc2c[nH]c3ccccc23)C(=O)N[C@@H](CCC(C)C)C(=O)N[C@H](C(=O)N[C@@H](CC(N)=O)C(=O)NCC(N)=O)[C@@H](C)O)NC(=O)[C@H](CCC(N)=O)NC(=O)[C@H](Cc2c[nH]c3ccccc23)NC(=O)[C@H]([C@@H](C)O)NC(=O)[C@H](CCC(N)=O)NC1=O` [compound 407], for which the IC50 came to 0.109 µM.

`CC(=O)N[C@H]1CSSC[C@@H](C(=O)N[C@@H](Cc2ccc(O)cc2)C(=O)N[C@@H](Cc2c[nH]c3ccccc23)C(=O)N2CCC[C@H]2C(=O)N[C@@H](CCC(=O)O)C(=O)N[C@@H](CC(N)=O)C(=O)NCC(N)=O)NC(=O)[C@H](CCC(N)=O)NC(=O)[C@H](Cc2c[nH]c3ccccc23)NC(=O)[C@H]([C@@H](C)O)NC(=O)[C@H](CCC(N)=O)NC1=O` [compound 409]: the IC50 was > 30 µM.

Staying with this test, now noted: read-out: Human IL23R/IL23 ELISA; peptide dimers, numeric.
`CC(C)C[C@H](NC(=O)[C@H](C)N)C(=O)N[C@H](C(=O)N[C@@H](Cc1c[nH]c2ccccc12)C(=O)N[C@@H](CCC(=O)O)C(=O)N[C@@H](Cc1ccccc1)C(=O)N[C@@H](Cc1ccc(O)cc1)C(=O)N[C@@H](Cc1c[nH]c2ccccc12)C(=O)N[C@@H](CC(C)C)C(=O)N[C@@H](CSSC[C@H](NC(=O)[C@H](CC(C)C)NC(=O)[C@H](Cc1c[nH]c2ccccc12)NC(=O)[C@H](Cc1ccc(O)cc1)NC(=O)[C@H](Cc1ccccc1)NC(=O)[C@H](CCC(=O)O)NC(=O)[C@H](Cc1c[nH]c2ccccc12)NC(=O)[C@@H](NC(=O)[C@H](CC(C)C)NC(=O)[C@H](C)N)[C@@H](C)O)C(=O)N[C@@H](CCCNC(=N)N)C(=O)N[C@@H](CCC(=O)O)C(N)=O)C(=O)N[C@@H](CCCNC(=N)N)C(=O)N[C@@H](CCC(=O)O)C(N)=O)[C@@H](C)O` [compound 278]: the IC50 was > 10 µM.
